{
  "source": "patent US8580814B2",
  "about": "“Methods of using (+)-1,4-dihydro-7-[(3S,4S)-3-methoxy-4-(methylamino)-1-pyrrolidinyl]-4- oxo-1-(2-thiazolyl)-1,8-naphthyridine-3-carboxylic acid for treatment of cancer” (priority 2006, dated 2013)",
  "assay_type_in_all_cases": "cell-based",
  "key": {"[1]": {"test_system": "HCT-116 cells with 6 fold lower ATR levels", "assay": "MTT assay, sensitization (ATRFLOX)", "details": "compound 72 hours", "description": "(§1) Cells were then incubated with 5% MTT for 1-2 hours and lysed. MTT was colorimetrically read at 570 nm and EC50's were determined using linear regression analysis.\n(§2) Sensitization was carried out with various chemical treatments."}, "[2]": {"test_system": "MO59J (DNAPKcs(−/−)) vs MO59K (DNAPKCs(+/+))", "assay": "MTT assay, sensitization (DNAPKcs(−/−))", "details": "compound 72 hours", "description": "as §1, §2"}, "[3]": {"test_system": "HCT-116 cells treated with 2 mM caffeine", "assay": "MTT assay, sensitization (caffeine)", "details": "2 mM caffeine pre-treated for 16 hours, compound 72 hours", "description": "as §1, §2"}},
  "data": [
    {"substance": "bleomycin", "values": [
      {"measurement": "Sensitization, fold decrease in the EC50 for cytotoxicity (MTT): ATRFLOX", "setting": "[1]", "value": 1, "unit": "fold"},
      {"measurement": "Sensitization, fold decrease in the EC50 for cytotoxicity (MTT): DNAPKcs(−/−)", "setting": "[2]", "value": 4, "unit": "fold"},
      {"measurement": "Sensitization, fold decrease in the EC50 for cytotoxicity (MTT): Caffeine", "setting": "[3]", "value": 10, "unit": "fold"}
    ]}
  ]
}
